4 compounds from patent US6552192B1, “Substituted nitrogen heterocyclic derivatives and pharmaceutical use thereof” (Ustau Experimentalni Botaniky AV-CR, priority 1999, dated 2003) can be followed below.

The term IC50 denotes the concentration needed to halve the response being measured.

Where two headings read alike, the source gives them in different places.

In one assay the test system is B16 melanoma. In words: In vitro cytotoxicity, MTT assay, B16. Type of assay: cell-based, mouse.
For a further assay, the system named is DNA synthesis. In words: DNA synthesis ([α-32P]dATP incorporation) in Xenopus egg extracts. The assay is classed as biochemical. The conditions noted are these: [α-32P]dATP incorporation after 3 h; read-out: Inhibition of DNA synthesis IC50.
A further assay deals with IκB-α. In words: IκB-α kinase inhibition, in vitro kinase assay. The assay is classed as biochemical.
In assay [1] the test system is T-lymphoblastic leukemia cell line CEM. In words: In vitro cytotoxicity, MTT assay, CEM. The assay is classed as cell-based, Human. The conditions noted are these: 72 hours. (Tetrazolium assays rely on reduction of a dye to a coloured formazan, in cell work by metabolically active cells.)
The test system of assay [2] is normal human lymphocytes, spontaneous proliferation. In words: Spontaneous proliferation of lymphocytes, 3H-thymidine incorporation. Type of assay: cell-based. Conditions: 72 hours, unstimulated lymphocytes. A general note: Dividing cells build labelled thymidine or BrdU into new DNA.
Assay [3] deals with normal human lymphocytes, mitogen activated proliferation. In words: Mitogen (concanavalin A) activated proliferation of lymphocytes, 3H-thymidine incorporation. The assay is classed as cell-based. The conditions noted are these: 72 hours.

With `CC(C)[C@H](CO)Nc1nc(Nc2cccc(Cl)c2)c2nc(F)n(C(C)C)c2n1`, the concentration for half-maximal inhibition (IC50) in the assay on B16 melanoma (Mus musculus, B16, 72 hours) turned out to be 3.5 µM.
Regarding `CC[C@H](CO)Nc1nc(NCc2ccccc2)c2nc(F)n(C(C)C)c2n1`, in the assay with DNA synthesis, the IC50 worked out at 2.4 µM.
Regarding OLOMOUCINE [reference compound], the half-inhibitory concentration (IC50) at IκB-α was found to be 15400 nM; with DNA synthesis, 15 µM; in assay [1] it was 70 µM; with B16 melanoma (72 hours), 85.4 µM; in assay [2] it was 245 µM; in assay [3] it was 72.1 µM.
Take PURVALANOL A [reference compound]: the IC50 was determined as 11.2 nM against IκB-α (unit nM printed beside the value); 2.4 µM in assay [1]; 3.5 µM in the assay on B16 melanoma (72 hours); 158 µM in assay [2]; 5.7 µM in assay [3].
